From patent US6384056B1, “Heterocyclic thioesters or ketones for vision and memory disorders” (GPI NIL Holdings, Inc., priority 1998, dated 2002)

By UniProt entry, the sequences of proteins in these tests, tags left out.
UniProt P62942, whole entry, species assumed: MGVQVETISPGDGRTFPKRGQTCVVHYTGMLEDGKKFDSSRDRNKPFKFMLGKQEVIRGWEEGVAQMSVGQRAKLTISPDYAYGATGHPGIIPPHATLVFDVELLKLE

Biological target: FKBP12 (Homo sapiens, UniProt P62942)
Assay: Ki test procedure: inhibition of peptidyl-prolyl isomerase (rotamase) activity, chymotrypsin-coupled assay
Type: biochemical
Conditions: apparent Ki
From the text: The inhibition of the prolyl peptidyl cis-trans isomerase activity of FKBP may be measured as an indicator of this affinity.
Inhibition of the peptidyl-prolyl isomerase (rotamase) activity of the compounds used in the inventive methods and pharmaceutical compositions can be evaluated by known methods described in the literature (Harding et al., Nature, 1989, 341:758-760; Holt et al. J. Am. Chem. Soc., 115:9923-9938).
The cis-trans isomerization of an alanine-proline bond in a model substrate, N-succinyl-Ala-Ala-Pro-Phe-p-nitroanilide, is monitored spectrophotometrically in a chymotrypsin-coupled assay, which releases para-nitroanilide from the trans form of the substrate. The inhibition of this reaction caused by the addition of different concentrations of inhibitor is determined, and the data is analyzed as a change in first-order rate constant as a function of inhibitor concentration to yield the apparent Ki values. […]
The absorbance at 390 nm versus time is monitored for 90 seconds using a spectrophotometer and the rate constants are determined from the absorbance versus time data files.

Q: “3-Phenyl-1-propyl (2S)-1-(3,3-dimethyl-1,2-dioxopentyl)-2-pyrrolidinecarbothioate [Compound 30]” was tested. Which Ki did it give?
A: 0.011 µM
